According to PubChem BioAssay AID504845 (National Center for Advancing Translational Sciences (NCATS), 2011):
“And” between values parts separate entries of the source, which are not always exact repeats. Equal entries are not always repeated. The entries are a selection whose mix differs from that of the whole data set. Some of these compounds have results that are not shown, active ones among them. Inconclusive results are not listed. The source made the active and inactive calls. Calls come from the whole dose curve; as a rule, active = well fitted inhibition curve with a large enough effect; inconclusive = small, poorly fitted or top-dose-only effect; inactive = no such curve, though single readings can be large or run the other way.

Chains of the proteins cited; added tags and fusions are not shown.
UniProt P49798, whole entry: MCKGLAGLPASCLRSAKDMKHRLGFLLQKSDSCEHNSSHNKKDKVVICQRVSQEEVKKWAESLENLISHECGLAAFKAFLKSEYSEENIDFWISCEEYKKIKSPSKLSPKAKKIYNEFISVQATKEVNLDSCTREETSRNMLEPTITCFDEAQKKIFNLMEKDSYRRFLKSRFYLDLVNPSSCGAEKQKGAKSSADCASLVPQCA

molecular target: Regulator of G-protein signaling 4 (Homo sapiens) (UniProt P49798); assay: Inhibitors of Regulator of G Protein Signaling (RGS) 4: qHTS; conditions: Transcreener GDP fluorescence polarization, RGS4-accelerated GTP hydrolysis; at 114 µM (top of the series); note: nearly all actives have a fitted effect of over 75% in size
Text: G-protein-coupled receptors (GPCRs) are well-established targets for drug discovery and development. Members of the "regulator of G-protein signaling" (RGS)-protein superfamily have recently emerged as critical modulators of specific GPCR signaling pathways. […] Combining specific RGS domain inhibitors with existing GPCR agonists should potentiate cellular responses and could also increase the specificity of action of existing therapeutics. Small molecule modulators of RGS domain activity should also have clinical utility in inhibiting or potentiating the actions of endogenous GPCR agonists. In particular, the diversity of RGS proteins with highly localized and dynamically regulated distributions in the human brain makes this family of proteins attractive targets for pharmacotherapy of central nervous system (CNS) disorders such as Parkinson's disease, schizophrenia, and anxiety.
This assay was used to screen the NIH Molecular Libraries Small Molecule Repository (MLSMR) in order to identify a small molecule that inhibits RGS4.
NIH Chemical Genomics Center [NCGC]
NIH Molecular Libraries Probe Centers Network [MLPCN]
Assay Submitter (PI): David Siderovski, University of North Carolina Chapel Hill (School of Medicine)
Two microliters of 500nM (2x working concentration) is dispensed into black medium-binding solid-bottom Kalypsys plates. Then with the Kalypsys pintool 23nl of control and compounds are transferred; the control compound is […] CCG-4986 (working concentration). After a 10 minute incubation at room temperature 2ul of antibody is added with the Kalypsys dispenser; (-)RGS4/Transcreener GDP solution in columns 3 and 4 which consisted of 10nM (2x working concentration) Alexa633, 20uM GTP, and 20 ug/ml GDP antibody and (+)RGS4/Transcreener GDP solution in columns 1,2, and 5 to 48 which consists of 900nM RGS4 (2x working concentration), 10nM Alexa633, 20 ug/ml GDP antibody. The plate is centrifuged at 1000 RPM for 15 seconds to remove any possible bubbles and then incubated for 5 minutes at ambient room temperature. An initial fluorescent polarization read (620 nm/688 nm) is performed on the Envision before the plate is incubated for 90 minutes at 30 deg C at a relative humidity of 80%. The plate is once more centrifuged at 1000 RPM for 15 seconds and another Envision fluorescent polarization (620 nm/688 nm) read is carried out.
% is set by controls: 0 for no effect and ±100 for the full control effect.

**Q.** How did the activity change, negative = inhibition turn out when `O=C(OC1CN2CCC1CC2)C(CO)(c1ccccc1)c1ccccc1` (centres undefined) was run?
**A.** inactive: 4.53%

**Q.** `COc1cccc(C(=O)NCC2(N3CCOCC3)CCCCC2)c1` was tested. Which activity change, negative = inhibition did it give?
**A.** inactive: -2.65%

**Q.** `CC(C)COc1ccc(C(=O)NCC2(N(C)C)CCCCC2)cc1` was tested. Which activity change, negative = inhibition did it give?
**A.** inactive: -4.11%

**Q.** With `COc1ccc(Br)c(C(=O)NCC2(N3CCCCC3)CCCCC2)c1` as the molecule, how does the activity change, negative = inhibition read?
**A.** inactive: 14.8%

**Q.** How did the activity change, negative = inhibition turn out when `Cc1cccc(C(=O)NCC2(N(C)C)CCCCC2)c1` was run?
**A.** inactive: 9.31%

**Q.** For `COc1cc(C(=O)NCC2(N(C)C)CCCCC2)cc(OC)c1OC`, which activity change, negative = inhibition is on record?
**A.** inactive: 3.01%

**Q.** With `CN(C)c1cccc(C(=O)NCC2(N(C)C)CCCCC2)c1` as the molecule, how does the activity change, negative = inhibition read?
**A.** inactive: -4.66%

**Q.** For `O=C(OCCN1CCCC1)C(O)(c1ccccc1)c1ccccc1`, which activity change, negative = inhibition is on record?
**A.** inactive: 13.9%

**Q.** `CC(C)Oc1ccc(C(=O)NCC2(N(C)C)CCCCC2)cc1` was tested. Which activity change, negative = inhibition did it give?
**A.** inactive: 24.5% and inactive: -11.2%

**Q.** For `CN(C)C1(CNC(=O)c2ccc(Br)cc2)CCCCC1`, which activity change, negative = inhibition is on record?
**A.** inactive: -7.3%

**Q.** Which activity change, negative = inhibition does the source give for `COc1cc(C(=O)NCC2(N(C)C)CCCCC2)c([N+](=O)[O-])cc1OC` here?
**A.** inactive: 4.84%

**Q.** For `COc1ccc(C(=O)NCC2(N(C)C)CCCCC2)cc1Cl`, which activity change, negative = inhibition is on record?
**A.** inactive: 23.4%

**Q.** `COc1ccc(Cl)cc1C(=O)NCC1(N(C)C)CCCCC1` was tested. Which activity change, negative = inhibition did it give?
**A.** inactive: -2.42%

**Q.** `COc1cccc(C(=O)NCC2(N3CCCCC3)CCCCC2)c1` was tested. Which activity change, negative = inhibition did it give?
**A.** inactive: -8.66%

**Q.** With `O=C(NCC1(N2CCCCC2)CCCCC1)c1cccc(Cl)c1` as the molecule, how does the activity change, negative = inhibition read?
**A.** inactive: -12.8%

**Q.** How did the activity change, negative = inhibition turn out when `CN(C)c1ccc(C(=O)NCC2(N(C)C)CCCCC2)cc1` was run?
**A.** inactive: 14.2%

**Q.** For `CN(C)C1(CNC(=O)c2ccccc2[N+](=O)[O-])CCCCC1`, which activity change, negative = inhibition is on record?
**A.** inactive: -13.9%

**Q.** Which activity change, negative = inhibition does the source give for `Cc1ccccc1C(=O)NCC1(N2CCCCC2)CCCCC1` here?
**A.** inactive: 2.68%

**Q.** Which activity change, negative = inhibition does the source give for `CCCCOc1ccccc1C(=O)NCC1(N(C)C)CCCCC1` here?
**A.** inactive: 27.6%

**Q.** For `O=C(NCC1(N2CCCCC2)CCCCC1)c1cc(F)c(F)cc1Cl`, which activity change, negative = inhibition is on record?
**A.** inactive: -31.2%

**Q.** Which activity change, negative = inhibition does the source give for `C=CCN1CCN(CCOC(=O)C(O)(c2ccccc2)c2ccccc2)CC1` here?
**A.** inactive: -8.15%

**Q.** With `O=C(NCC1(N2CCCCC2)CCCCC1)c1cccc(Br)c1` as the molecule, how does the activity change, negative = inhibition read?
**A.** inactive: 14.7%

**Q.** With `Cc1cc(C(=O)NCC2(N3CCCCC3)CCCCC2)ccc1[N+](=O)[O-]` as the molecule, how does the activity change, negative = inhibition read?
**A.** inactive: 18.7%

**Q.** How did the activity change, negative = inhibition turn out when `CCN1CCCC(OC(=O)C2(O)c3ccccc3C=Cc3ccccc32)C1` (centres undefined) was run?
**A.** inactive: -41.4%

**Q.** How did the activity change, negative = inhibition turn out when `CCOc1cccc(C(=O)NCC2(N(C)C)CCCCC2)c1` was run?
**A.** inactive: 2.83%

**Q.** How did the activity change, negative = inhibition turn out when `COc1ccc(C(=O)NCC2(N(C)C)CCCCC2)cc1` was run?
**A.** inactive: -2.76%

**Q.** With `O=C(NCC1(N2CCCCC2)CCCCC1)c1cc([N+](=O)[O-])ccc1Cl` as the molecule, how does the activity change, negative = inhibition read?
**A.** inactive: -14.7%

**Q.** How did the activity change, negative = inhibition turn out when `CN1[C@@H]2CC[C@H]1CC(OC(=O)C(O)(c1ccccc1)c1ccccc1)C2` (some centres undefined) was run?
**A.** inactive: 17.1%

**Q.** How did the activity change, negative = inhibition turn out when `CC(C)N1C(=O)CC2(CCN(CCOC(=O)C(O)(c3ccccc3)c3ccccc3)CC2)C1=O` was run?
**A.** inactive: 4.37%

**Q.** Which activity change, negative = inhibition does the source give for `COc1cc(SC)ccc1C(=O)NCC1(N(C)C)CCCCC1` here?
**A.** inactive: 18.3%

**Q.** Which activity change, negative = inhibition does the source give for `CN(C)C1(CNC(=O)c2cccc(Cl)c2)CCCCC1` here?
**A.** inactive: -12.5%

**Q.** How did the activity change, negative = inhibition turn out when `CCN(CC)CC(C)C(C)OC(=O)C(O)(c1ccccc1)c1ccccc1` (centres undefined) was run?
**A.** inactive: 3.11%

**Q.** For `CN(C)C1(CNC(=O)c2ccccc2F)CCCCC1`, which activity change, negative = inhibition is on record?
**A.** inactive: -15.1%

**Q.** `Cc1ccc(C(=O)NCC2(N3CCCCC3)CCCCC2)cc1` was tested. Which activity change, negative = inhibition did it give?
**A.** inactive: -4.65%
